Here are results for 1 compound from US10669272B2, “Substituted naphthyridinone compounds useful as T cell activators” (BRISTOL-MYERS SQUIBB COMPANY, priority 2018, dated 2020).

By UniProt entry, the sequences of proteins in these tests, tags left out. Chains listed by the source or under a name are the forms on record and can include a tag or linker.
UniProt P23743, with tags, fused parts or gaps: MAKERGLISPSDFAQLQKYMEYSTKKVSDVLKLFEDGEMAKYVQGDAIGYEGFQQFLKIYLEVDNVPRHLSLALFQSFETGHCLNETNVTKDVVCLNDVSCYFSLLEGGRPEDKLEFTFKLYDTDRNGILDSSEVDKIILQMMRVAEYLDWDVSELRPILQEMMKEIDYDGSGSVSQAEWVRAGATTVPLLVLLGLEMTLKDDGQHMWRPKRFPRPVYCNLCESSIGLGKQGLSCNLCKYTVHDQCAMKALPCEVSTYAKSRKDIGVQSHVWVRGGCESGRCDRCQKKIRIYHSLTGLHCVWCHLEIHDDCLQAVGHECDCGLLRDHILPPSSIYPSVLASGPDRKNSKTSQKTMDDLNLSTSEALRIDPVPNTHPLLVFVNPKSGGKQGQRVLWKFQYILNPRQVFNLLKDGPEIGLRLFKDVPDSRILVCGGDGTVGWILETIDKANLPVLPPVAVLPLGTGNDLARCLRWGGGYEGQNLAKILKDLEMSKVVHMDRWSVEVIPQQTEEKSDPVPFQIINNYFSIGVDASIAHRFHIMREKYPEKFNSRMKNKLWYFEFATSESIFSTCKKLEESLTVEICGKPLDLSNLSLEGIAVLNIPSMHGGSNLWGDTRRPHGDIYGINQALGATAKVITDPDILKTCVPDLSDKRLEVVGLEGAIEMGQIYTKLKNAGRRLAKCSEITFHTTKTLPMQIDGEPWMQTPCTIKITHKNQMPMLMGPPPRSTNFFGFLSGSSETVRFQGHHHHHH

For the assay, the target named is T1, human DGKα (Homo sapiens, UniProt P23743).
T1 construct: TVMV protease cleavage site (C); Hexa-His (C); made in house; host or cells: Sf9 insect cells (baculovirus, Bac-to-Bac)
Briefly: DGKα LIPGLO assay (extruded liposome substrate), in vitro DGK inhibition. It is filed as biochemical. The settings on record: DGKa LIPGLO IC50, liposome (LIPGLO) assay.

Consider `CC[C@H]1CN(C(c2ccc(F)cc2)c2ccc(F)cc2)CCN1c1cc(=O)n(C)c2ccc(C#N)nc12` [Example 127, (S)-8-(4-(bis(4-fluorophenyl)methyl)-2-ethylpiperazin-1-yl)-5-methyl-6-oxo-5,6-dihydro-1,5-naphthyridine-2-carbonitrile], for which it took 1500 nM to reach half-maximal inhibition (IC50).
